## Yeast mating assay B: variants of the scFv Ab-14

All variants were tested on one target, the spike HR2 peptide PDVDLGDISGINAS (SARS-CoV-2).

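The variants were designed computationally from a first round of random CDR variants and then made and measured. Their group label is 14L_Ctrl (Ctrl: baseline library sampled from a position-specific scoring matrix, with some repeated check sequences). AlphaSeq pools MATa yeast showing the antibodies with MATalpha yeast showing the peptide. The frequency of each diploid, read from paired DNA barcodes, reflects how well the two displayed proteins bind. The ratio of observed to expected reads was calibrated, replicate by replicate, on BCL2-family standards whose Kd was known from biolayer interferometry. The assay was run in six technical replicates.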

Parent scFv Ab-14: VH joined to VL by three GGGGS repeats. Changes lie in the light chain CDRs alone.
VH: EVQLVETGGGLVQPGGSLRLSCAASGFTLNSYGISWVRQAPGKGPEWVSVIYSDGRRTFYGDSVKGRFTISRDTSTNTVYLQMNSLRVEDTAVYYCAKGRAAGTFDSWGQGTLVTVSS
VL: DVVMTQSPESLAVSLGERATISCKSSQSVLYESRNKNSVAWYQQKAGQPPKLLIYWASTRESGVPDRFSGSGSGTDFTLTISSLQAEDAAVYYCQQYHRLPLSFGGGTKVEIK

Substitutions are numbered in sequence along the VL above, starting at 1 (not Kabat).
Numbers give log10(Kd / nM), so 0 is 1 nM and 3 is 1 µM. Smaller is tighter.
An entry "n.d." has no value in the source: the pair was not observed among the diploids in that replicate. This suggests poor binding but is not conclusive.

| changes | log10 Kd, replicates | signal with controls |
|---|---|---|
| S25V/E32N/K36V/W56H | -0.04 / -0.28 / -0.24 / -0.04 / -0.34 / -0.23 | 0/18 |
| E32N/H98Y | n.d. / n.d. / 3.33 / 1.94 / 1.39 / n.d. | 0/18 |
| Q27I/Y31K/R34N/W56N/Y97W/R99I | n.d. / n.d. / n.d. / n.d. / n.d. / n.d. | 0/18 |
| S25Q/Q27F/Y31N/H98P | n.d. / n.d. / n.d. / n.d. / 3.05 / n.d. | 1/18 (2.07) |
| S33E/R34T/S38V | 0.70 / 0.56 / 1.31 / 1.67 / 2.70 / 1.33 | 0/18 |
| S38Q/W56S | 0.19 / 0.47 / 0.67 / 0.53 / 0.39 / 0.39 | 2/18 (2.35) |
| K24I/V29I/Y31D/K36Q/R99S | 2.11 / 1.81 / 1.97 / 1.36 / n.d. / n.d. | 0/18 |
| S33H/W56G | 0.74 / 0.89 / 0.94 / 0.96 / 0.84 / 1.28 | 1/18 (2.40) |
| N35D/Q96P/Y97P/R99E | 2.16 / 2.32 / 2.19 / 2.04 / 2.85 / 1.55 | 1/18 (2.55) |
| S25M/R34H | 0.56 / 0.76 / 1.13 / 0.47 / 0.67 / 0.68 | 0/18 |
| V29W/S33M/R34D | 1.14 / 1.91 / 1.89 / 0.93 / 2.60 / 1.34 | 0/18 |
| Q27S/Y31T/S103W | n.d. / n.d. / n.d. / n.d. / n.d. / n.d. | 0/18 |
| S25I/N37K | 0.67 / 1.11 / 1.44 / 1.83 / 1.36 / 2.25 | 0/18 |
| W56E/H98D | 1.45 / 1.31 / 0.74 / 1.02 / 0.78 / 1.12 | 1/18 (3.11) |
| R34N/Y97P | 2.41 / 1.10 / 2.54 / 1.76 / 1.58 / 2.30 | 0/18 |
| V29G/Y31A/N35Q/S62D | 2.25 / 1.99 / 2.67 / 2.81 / 2.35 / 2.02 | 3/18 (2.00) |
| S25D/L30E/R34M/K36Q | n.d. / n.d. / n.d. / n.d. / n.d. / n.d. | 0/18 |
| L30W/V39H/W56Q/Q96R | n.d. / n.d. / n.d. / n.d. / n.d. / n.d. | 0/18 |
| Y31D/Y97K | 1.11 / 0.95 / -0.84 / n.d. / 0.39 / n.d. | 0/18 |
| S25F/E32S | 0.72 / 1.92 / 0.54 / 1.13 / 0.64 / 0.95 | 0/18 |
| K24M/W56K/P101I | 1.35 / 1.42 / 1.36 / 2.25 / 1.48 / 1.37 | 0/18 |
| Y31D/S33N/N35Y/W56A/S58K/S62Q | n.d. / n.d. / n.d. / n.d. / n.d. / n.d. | 0/18 |
| Y31S/S103P | n.d. / n.d. / n.d. / n.d. / n.d. / n.d. | 0/18 |
| Q27D/Y31D/T59K | 1.68 / 2.09 / 2.10 / 2.01 / 1.95 / 1.73 | 0/18 |
| V29G/S33E/W56Q | 0.34 / 0.64 / 0.65 / 0.55 / 1.72 / 0.74 | 1/18 (2.10) |
| R60H | n.d. / n.d. / n.d. / n.d. / n.d. / 4.33 | 0/18 |
| S25L/S58V | 1.48 / 1.02 / 1.02 / 0.59 / 1.19 / 0.92 | 1/18 (2.60) |
| R34S/A57C/P101I | n.d. / n.d. / n.d. / n.d. / 1.72 / 3.03 | 1/18 (0.86) |
| N35G/Q96A | n.d. / 2.33 / n.d. / n.d. / n.d. / 2.75 | 0/18 |
| S26G/V29D/S33E | 2.10 / 1.98 / 2.59 / 2.90 / 2.42 / 3.03 | 0/18 |
| S26M/S33D/R99K | n.d. / n.d. / n.d. / n.d. / n.d. / n.d. | 0/18 |
| S25F/E61P | 1.68 / 1.44 / 1.01 / 1.42 / 1.10 / 2.01 | 1/18 (2.43) |
| S25F/S26I/Y31E/H98I | 1.71 / 0.79 / 1.08 / 1.13 / 1.36 / 1.37 | 0/18 |
| E32K/S33E/W56R | n.d. / 2.95 / n.d. / 2.38 / n.d. / n.d. | 0/18 |
| V29D/H98I | 2.54 / n.d. / 1.61 / n.d. / n.d. / n.d. | 1/18 (2.09) |
| S25L/V29D/E32D/W56D/R99S | 0.08 / 0.12 / -0.16 / -0.08 / -0.09 / 0.09 | 1/18 (4.39) |
| V29Q/Y31L/E32M | n.d. / n.d. / n.d. / n.d. / n.d. / n.d. | 0/18 |
| S26W/Q27M/S33E/P101H/L102N | n.d. / n.d. / n.d. / n.d. / n.d. / n.d. | 0/18 |
| S25L/Y31T/R34S | n.d. / 1.69 / 0.11 / n.d. / 0.38 / 0.96 | 0/18 |

Picked from the list: the 4 lowest averages where every replicate gave a value.

| changes | log10 Kd, replicates | signal with controls |
|---|---|---|
| S25V/E32N/K36V/W56H | -0.04 / -0.28 / -0.24 / -0.04 / -0.34 / -0.23 | 0/18 |
| S25L/V29D/E32D/W56D/R99S | 0.08 / 0.12 / -0.16 / -0.08 / -0.09 / 0.09 | 1/18 (4.39) |
| S38Q/W56S | 0.19 / 0.47 / 0.67 / 0.53 / 0.39 / 0.39 | 2/18 (2.35) |
| S25M/R34H | 0.56 / 0.76 / 1.13 / 0.47 / 0.67 / 0.68 | 0/18 |

The range of this assay differs from that of the first round, and the authors advise against merging the two.
In the paper, a design with two or fewer of six values counts as a poor binder.
The parent sequence was in this pool as ten entries: three were never detected, three once, and four in most replicates, with averages from 0.34 to 2.37.
Background: pairings of all light chain designs with three empty control strains gave a value in 4% of cases (median 2.64, 5th percentile 1.59). Values in that range, when seen in few replicates, are hard to tell from nonspecific mating. Also given: how often the same scFv was detected with the empty control strains, with their mean in brackets.

The measurements come from Li et al. 2023 (doi:10.1038/s41467-023-39022-2) through the FLAb antibody collection.